Key:
UGT2B17 = target: T1, UGT2B17 (Homo sapiens, UniProt O75795); test: Inhibition of recombinant UGT2B17 activity (4-MU glucuronidation); conditions: read-out: IC50 for inhibition of UGT2B17 activity; recombinant human UGT2B17, 2000 μM 4-MU, mean ± SD
T1 sequence (O75795 24-530): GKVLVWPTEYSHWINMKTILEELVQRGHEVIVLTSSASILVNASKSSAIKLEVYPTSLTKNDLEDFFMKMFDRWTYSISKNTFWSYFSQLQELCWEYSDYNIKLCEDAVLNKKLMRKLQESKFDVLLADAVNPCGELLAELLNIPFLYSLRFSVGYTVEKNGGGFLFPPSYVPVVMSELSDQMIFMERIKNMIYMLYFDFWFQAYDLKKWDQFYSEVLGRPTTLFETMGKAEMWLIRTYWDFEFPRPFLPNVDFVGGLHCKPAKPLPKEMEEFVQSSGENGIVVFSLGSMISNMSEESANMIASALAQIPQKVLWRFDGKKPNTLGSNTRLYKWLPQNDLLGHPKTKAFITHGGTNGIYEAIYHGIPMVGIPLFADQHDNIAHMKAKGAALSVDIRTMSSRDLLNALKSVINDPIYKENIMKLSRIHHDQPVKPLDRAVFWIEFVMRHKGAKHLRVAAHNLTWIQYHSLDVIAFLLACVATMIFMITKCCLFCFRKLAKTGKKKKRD
Protocol: (§1) A panel of recombinant human UGT supersomes (UGT1A1, UGT1A3, UGT1A4, UGT1A6, UGT1A7, UGT1A8, UGT1A9, UGT1A10, UGT2B4, UGT2B7, UGT2B15, and UGT2B17) expressed in baculovirus-infected insect cells were purchased from BD Gentest Corp. (Woburn, MA, USA).
(§2) 4-MU, a nonselective substrate of UGTs, was used as probe substrate for all UGTs except UGT1A4. Incubations with each individual enzyme were conducted using conditions previously described. There was a 5 min preincubation step at 37°C before the reaction was started by addition of UDPGA. The incubation mixtures were then centrifuged at 20,500 ×g for 15 min to obtain the supernatant. Aliquots (20 μL) were then analyzed by HPLC. The HPLC system (SHIMADZU, Kyoto, Japan) consisted of an SCL-10A system controller, two LC-10AT pumps, a SIL-10A auto injector, and a SPD-10AVP UV detector. Chromatographic separation was achieved using a Kromasil ODS column (4.6 × 150 mm I.D., 5 μm particle size) at a flow rate of 1 mL/min and UV detection at 316 nm. The mobile phase consisted of 10 mM KH2PO4, pH 2.7 (A) and acetonitrile (B). […]
(§3) Inhibition data from experiments were graphically represented by Dixon plots. K i values were calculated by nonlinear regression using the equations for competitive inhibition (1), noncompetitive inhibition (2), or mixed inhibition (3), [22] […]

UGT1A1 = target: T2, UGT1A1 (Homo sapiens, UniProt P22309); test: Inhibition of recombinant UGT1A1 activity (4-MU glucuronidation); conditions: read-out: IC50 for inhibition of UGT1A1 activity; recombinant human UGT1A1, 110 μM 4-MU, mean ± SD
T2 sequence (P22309 26-533): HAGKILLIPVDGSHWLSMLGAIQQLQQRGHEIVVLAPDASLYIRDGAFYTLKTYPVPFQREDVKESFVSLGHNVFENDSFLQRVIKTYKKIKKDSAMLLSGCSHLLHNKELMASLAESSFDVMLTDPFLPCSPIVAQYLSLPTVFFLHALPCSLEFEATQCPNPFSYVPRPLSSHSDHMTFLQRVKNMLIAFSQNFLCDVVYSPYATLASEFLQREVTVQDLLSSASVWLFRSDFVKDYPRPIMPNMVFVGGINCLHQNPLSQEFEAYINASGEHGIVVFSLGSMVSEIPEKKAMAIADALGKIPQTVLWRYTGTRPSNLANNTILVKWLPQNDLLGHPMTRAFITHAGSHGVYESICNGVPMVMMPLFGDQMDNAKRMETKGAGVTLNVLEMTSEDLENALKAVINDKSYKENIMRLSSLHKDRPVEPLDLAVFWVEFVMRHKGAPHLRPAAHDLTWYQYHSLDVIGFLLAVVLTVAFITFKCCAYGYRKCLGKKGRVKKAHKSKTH
Protocol: as §1, §2, §3

Icariside II gave an IC50 (UGT2B17) of over 100 µM and an IC50 (UGT1A1) of over 100 µM.

Source: paper PMC3479967, “Drug-Drug Interactions Potential of Icariin and Its Intestinal Metabolites via Inhibition of Intestinal UDP-Glucuronosyltransferases” (Evidence-based Complementary and Alternative Medicine : eCAM, 2012)
